{"source": "paper PMC5833756", "about": "“A novel ruthenium complex with xanthoxylin induces S-phase arrest and causes ERK1/2-mediated apoptosis in HepG2 cells through a p53-independent pathway” (Cell Death & Disease, 2018)", "tested_on": "AGP-01", "note": "Like-named read-outs stand apart in the source and are kept apart here."}
{"molecule": "COc1cccc2c1C(=O)c1c(O)c3c(c(O)c1C2=O)C[C@@](O)(C(=O)CO)C[C@@H]3O[C@H]1C[C@H](N)[C@H](O)[C@H](C)O1", "note": "[DOX, doxorubicin]", "values": [{"measurement": "selectivity index (SI)", "setting": "IC50 MRC5 / IC50 AGP-01", "value": 0.7}, {"measurement": "selectivity index (SI)", "setting": "IC50 PBMC / IC50 AGP-01", "value": 2.7}]}
